According to PubChem BioAssay AID687014 (The Scripps Research Institute Molecular Screening Center, 2013):
The entries are a selection whose mix differs from that of the whole data set. Some results for these compounds are left out of this collection, so the calls shown say nothing about other tests. Activity calls are given as the source filed them.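 Rule for the calls: active = activation above a cutoff set at the mean of all screened compounds plus 3 SD (cut at about 10% in these data); inactive = the rest.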

The compounds below were run on Nuclear hormone receptor DAF-12 (Heterodera glycines), GAL4 fusion (assay: H. glycines DAF-12 receptor agonists, primary screen, cell-based, luminescence, HEK293, GAL4 fusion, UAS-luciferase (AID 687014;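 note: 0% = DMSO wells and 100% = sodium butyrate wells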)). Conditions: HEK293 GAL4-hgDAF12 UAS-luciferase reporter, agonist luminescence; at 6.8 µM; active compounds read high; normalized to butyrate control.

Structure (SMILES)	activation
C=CCN1CCN(CCOC(=O)C(O)(c2ccccc2)c2ccccc2)CC1	inactive: -0.92%
O=C(NCC1(N2CCCCC2)CCCCC1)c1cc(F)c(F)cc1Cl	inactive: 0.64%
CCN1CCCC(OC(=O)C2(O)c3ccccc3C=Cc3ccccc32)C1 (stereo unspecified)	inactive: 0.03%
Cc1cc(C(=O)NCC2(N3CCCCC3)CCCCC2)ccc1[N+](=O)[O-]	inactive: 4.42%
O=C(NCC1(N2CCCCC2)CCCCC1)c1cccc(Br)c1	inactive: 2.77%
COc1ccc(C(=O)NCC2(N(C)C)CCCCC2)cc1	inactive: 1.33%
Cc1ccccc1C(=O)NCC1(N2CCCCC2)CCCCC1	inactive: 2.03%
CN(C)c1ccc(C(=O)NCC2(N(C)C)CCCCC2)cc1	inactive: 1.07%
CN(C)C1CCCC1OC(=O)C(O)(c1ccccc1)c1ccccc1 (stereo unspecified)	inactive: 1.47%
CC(C)N1C(=O)CC2(CCN(CCOC(=O)C(O)(c3ccccc3)c3ccccc3)CC2)C1=O	inactive: -2.31%
CCN(CC)CC(C)C(C)OC(=O)C(O)(c1ccccc1)c1ccccc1 (stereo unspecified)	inactive: -3.36%
COc1cc(SC)ccc1C(=O)NCC1(N(C)C)CCCCC1	inactive: -0.1%
Cc1ccc(C(=O)NCC2(N3CCCCC3)CCCCC2)cc1	inactive: -0.25%
O=C(NCC1(N2CCCCC2)CCCCC1)c1cc([N+](=O)[O-])ccc1Cl	inactive: -0.19%
CN1[C@@H]2CC[C@H]1CC(OC(=O)C(O)(c1ccccc1)c1ccccc1)C2 (stereo partly specified)	inactive: 1%
COc1ccc(Br)c(C(=O)NCC2(N3CCCCC3)CCCCC2)c1	inactive: -0.91%
C=C(C)C#CC(O)(C(=O)OC1CCN(C)CC1)c1ccccc1 (stereo unspecified)	inactive: -2.89%
CN(C)c1cccc(C(=O)NCC2(N(C)C)CCCCC2)c1	inactive: -1.56%
CC(C)Oc1ccc(C(=O)NCC2(N(C)C)CCCCC2)cc1	inactive: -0.1%
O=C(OCCN1CCCC1)C(O)(c1ccccc1)c1ccccc1	inactive: 1.6%
O=C(OC1CN2CCC1CC2)C(CO)(c1ccccc1)c1ccccc1 (stereo unspecified)	inactive: 0.09%
COc1cccc(C(=O)NCC2(N3CCCCC3)CCCCC2)c1	inactive: -0.12%
COc1ccc(Cl)cc1C(=O)NCC1(N(C)C)CCCCC1	inactive: -0.43%
O=C(NCC1(N2CCCCC2)CCCCC1)c1cccc(Cl)c1	inactive: 2.3%
CN(C)C1(CNC(=O)c2ccc(Br)cc2)CCCCC1	inactive: -1.36%
COc1cc(C(=O)NCC2(N(C)C)CCCCC2)c([N+](=O)[O-])cc1OC	inactive: 0.77%
